The numbers were not newly measured in patent US20020165286A1, “Dermal anti-inflammatory composition” (priority 2000, published 2002), which cites them from elsewhere.

For the data set the following is noted: topical administration; cited from earlier work.

Consider `CCC[C@@H]1C[C@@H](C(=O)N[C@@H]([C@H]2O[C@H](SC)[C@H](O)[C@@H](O)[C@H]2O)[C@H](C)Cl)N(C)C1` [Clindamycin], for which the Potential irritant entry is on record as “No”.
